Among the data in ChEMBL document CHEMBL5647694, “Novel orally bioavailable EZH1/2 dual inhibitors with greater antitumor efficacy than an EZH2 selective inhibitor” (Cancer Sci, 2017) are IC50 values, retold here.

For this test, the target named is T1, Histone-lysine N-methyltransferase EZH1 (Homo sapiens, UniProt Q92800).
T1 sequence (Q92800 whole entry): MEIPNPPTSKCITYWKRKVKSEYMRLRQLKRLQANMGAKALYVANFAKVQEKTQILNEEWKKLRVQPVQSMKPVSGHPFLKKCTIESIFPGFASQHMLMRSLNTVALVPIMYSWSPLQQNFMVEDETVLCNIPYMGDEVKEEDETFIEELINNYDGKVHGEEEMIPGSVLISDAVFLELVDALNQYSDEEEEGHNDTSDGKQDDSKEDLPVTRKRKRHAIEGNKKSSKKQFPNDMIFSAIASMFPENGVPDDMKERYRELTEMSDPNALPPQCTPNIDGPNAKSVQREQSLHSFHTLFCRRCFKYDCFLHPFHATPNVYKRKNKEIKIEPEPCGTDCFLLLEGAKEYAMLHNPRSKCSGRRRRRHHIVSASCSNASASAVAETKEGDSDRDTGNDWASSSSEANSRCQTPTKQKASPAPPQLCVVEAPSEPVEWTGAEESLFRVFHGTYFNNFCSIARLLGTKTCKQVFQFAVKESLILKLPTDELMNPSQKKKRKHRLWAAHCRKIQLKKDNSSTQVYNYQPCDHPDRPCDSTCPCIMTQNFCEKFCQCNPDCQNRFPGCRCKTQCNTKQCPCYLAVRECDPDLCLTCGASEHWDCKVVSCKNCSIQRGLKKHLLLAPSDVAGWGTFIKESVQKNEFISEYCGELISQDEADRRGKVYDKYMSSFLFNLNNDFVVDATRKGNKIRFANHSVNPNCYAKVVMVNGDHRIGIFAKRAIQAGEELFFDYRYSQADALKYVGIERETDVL

Take `Cc1cc(C)c(CNC(=O)c2cc(Br)c3c(c2C)OC(C)(C2CCC(N(C)C)CC2)O3)c(=O)[nH]1` (stereo unspecified): the IC50 (usually the concentration that gives 50% inhibition) amounted to 0.0163 µM.
